Assay results from ChEMBL document CHEMBL1129506, “2,4-Diarylpyrrolidine-3-carboxylic acids--potent ETA selective endothelin receptor antagonists. 1. Discovery of A-127722” (J Med Chem, 1996).

Sequences of proteins named here, by UniProt entry; tags and fusion partners are left off.
UniProt P26684, whole entry: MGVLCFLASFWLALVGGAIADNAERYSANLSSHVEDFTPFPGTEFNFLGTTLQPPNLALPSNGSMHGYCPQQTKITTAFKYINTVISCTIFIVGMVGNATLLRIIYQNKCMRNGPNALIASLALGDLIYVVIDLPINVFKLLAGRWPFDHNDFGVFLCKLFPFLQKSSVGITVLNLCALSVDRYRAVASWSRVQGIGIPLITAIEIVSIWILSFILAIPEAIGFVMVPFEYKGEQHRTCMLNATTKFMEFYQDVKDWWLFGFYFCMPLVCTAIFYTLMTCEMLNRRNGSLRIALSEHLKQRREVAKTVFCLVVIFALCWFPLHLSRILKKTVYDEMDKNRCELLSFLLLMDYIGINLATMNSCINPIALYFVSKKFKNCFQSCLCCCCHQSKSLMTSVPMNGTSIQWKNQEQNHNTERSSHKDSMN

Molecular target: Endothelin-1 receptor (Rattus norvegicus, UniProt P26684)
Experiment: Inhibitory activity against the Endothelin A receptor of rat MMQ cells
Format: cell-based

IC50: 14.1 µM
Structure (SMILES): COc1ccc([C@@H]2[C@@H](C(=O)O)[C@H](c3ccc4c(c3)OCO4)CN2C(=O)COc2ccc(F)cc2)cc1
